According to IntAct's records for PubMed 17317006:

B1: Glycogen synthase kinase-3 beta (Homo sapiens), P49841 (parent)
chain: MSGRPRTTSFAESCKPVQQPSAFGSMKVSRDKDGSKVTTVVATPGQGPDRPQEVSYTDTKVIGNGSFGVVYQAKLCDSGELVAIKKVLQDKRFKNRELQIMRKLDHCNIVRLRYFFYSSGEKKDEVYLNLVLDYVPETVYRVARHYSRAKQTLPVIYVKLYMYQLFRSLAYIHSFGICHRDIKPQNLLLDPDTAVLKLCDFGSAKQLVRGEPNVSYICSRYYRAPELIFGATDYTSSIDVWSAGCVLAELLLGQPIFPGDSGVDQLVEIIKVLGTPTREQIREMNPNYTEFKFPQIKAHPWTKVFRPRTPPEAIALCSRLLEYTPTARLTPLEACAHSFFDELRDPNVKLPNGRDTPALFNFTTQELSSNPPLATILIPPHARIQAAASTPTNATAASDANTGDRGQTNNAASASASNST

Variants of: B1
Details: with 1433z_human YWHAZ

effect of a mutation on the interaction	Variant
disrupting interaction	S9A
